Results as given in patent publication US9883997B2, “Cosmetic compositions with tricyclodecane amides” (Conopco, Inc., priority 2013, dated 2018).

Tests used:
[1] = Precursor cosmetic compositions evaluated for crystals content, i.e. solubility of solid agent in the liquid agent (Example 29); assay type: physicochemical
Procedure: The following precursor cosmetic compositions were prepared and evaluated for crystals content, i.e. solubility of solid agent in the liquid agent.
The composition is heated to a temperature above the melting point of the highest melting compound, then allowed to cool to room temperature. […] In the case of end use cosmetic compositions visualization of the crystals of solid agent was done by comparing a sample with and without tricyclodecane amide and observing the formation of crystals, if any, under the optical microscope fitted with cross-polarizers at a magnification of 10× or higher.

[2] = solid cosmetic agents, Table 1; cited from earlier work

Compound | Appearance after cooling - observation at 24 hours, except as noted ([1]; Avobenzone (41%) in OMC (59%), [S]/[L] 0.7, no tricyclodecaneamide) | Log Po/w [2] | Appearance after cooling - observation at 24 hours, except as noted ([1]; Salicylic acid (20%) in conjugated linoleic acid (80%), [S]/[L] .3, no tricyclodecaneamide) | Appearance after cooling - observation at 24 hours, except as noted ([1]; Salyclic acid (10%) in OMC (90%), [S]/[L] 0.1, no tricyclodecaneamide)
COc1ccc(C(=O)CC(=O)c2ccc(C(C)(C)C)cc2)cc1 [Avobenzone] | crystals + liquid | 4.19 |  | 
O=C(O)c1ccccc1O [Salicylic Acid] |  | 2.01 | opaque solid | crystal + liquid
